Source: patent US10660908B2, “Pharmaceutical spray composition comprising a vitamin D analogue and a corticosteroid” (LEO Pharma A/S, priority 2010, dated 2020)

Test: Solubility of vitamin D analogues and corticosteroids in different propellant mixtures (Example 7)
Conditions: ambient temperature, mean of 2 determinations

`CCCC(=O)O[C@]1(C(=O)CO)CC[C@H]2[C@@H]3CCC4=CC(=O)CC[C@]4(C)[C@H]3[C@@H](O)C[C@@]21C` [Hydrocortisone 17-butyrate, hydrocortisone 17-butyrate] gave a solubility (DME 0 weight % of total propellant (butane only)) of 3 μg/g propellant, a solubility (DME 16 weight % of total propellant) of 68 μg/g propellant and a solubility (DME 53 weight % of total propellant) greater than 1600 μg/g propellant.
